For assay [1], the target named is T1, human VEGF (hVEGF) (human, UniProt P15692 27-191).
Assay [2] addresses T2, murine VEGF (mVEGF) (mouse, UniProt Q00731 27-190).
T2 chain: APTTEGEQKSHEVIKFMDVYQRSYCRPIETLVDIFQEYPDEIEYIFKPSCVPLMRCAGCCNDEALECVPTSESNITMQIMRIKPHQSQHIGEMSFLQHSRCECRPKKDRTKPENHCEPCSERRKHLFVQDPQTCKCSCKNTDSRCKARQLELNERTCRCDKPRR

For assay [3], the target named is T1, human VEGF (hVEGF). The assay can be described thus: SPR. Background: Surface plasmon resonance follows binding to a sensor surface in real time, without labels.
The target in assay [4] is T2, murine VEGF (mVEGF). The assay can be described thus: SPR.
The target of assay [5] is T2, murine VEGF (mVEGF). The assay can be described thus: competition.
In assay [6] the target is T1, human VEGF (hVEGF). Briefly: competition.
The target of assay [7] is T2, murine VEGF (mVEGF). Briefly: competition.
For assay [8], the target named is T1, human VEGF (hVEGF). The assay can be described thus: competition. The source holds these as a separate data set.
Assay [9] deals with T1, human VEGF (hVEGF). The assay can be described thus: competition. This is another data set of the same source.
Assay [10] concerns the target T2, murine VEGF (mVEGF). The assay can be described thus: competition.
For assay [11], the target named is T1, human VEGF (hVEGF). Briefly: SPR. The source holds these as a separate data set.
The target of assay [12] is T2, murine VEGF (mVEGF). Briefly: SPR.
The target of assay [13] is T1, human VEGF (hVEGF). Briefly: competition. This is another data set of the same source.

Where a chain is given by its changes, count along the chain named. Values joined by “and” are separate entries in the source; they are usually repeats but may differ in a detail not shown here. Equal values may be shown once. Read-outs that look alike come from different tables or passages of the source.

B1: G6 Fab (Fab, V domains shown)
VH: EVQLVESGGGLVQPGGSLRLSCAASGFTISDYWIHWVRQAPGKGLEWVAGITPAGGYTYYADSVKGRFTISADTSKNTAYLQMNSLRAEDTAVYYCARFVFFLPYAMDYWGQGTLVTVSS
VL: DIQMTQSPSSLSASVGDRVTITCRASQDVSTAVAWYQQKPGKAPKLLIYSASFLYSGVPSRFSGSGSGTDFTLTISSLQPEDFATYYCQQSYTTPPTFGQGTKVEIKR
For B1, the Kd in [1] was 1.3 nM; in assay [2], 1.1 nM; in [3] it was 1.6 nM; in assay [4], 0.7 nM. Besides, the IC50 in [5] is 0.6 nM; in assay [6], 1.4 nM; in [7] it was 0.6 nM; in assay [8] it was 2 nM; in assay [9] it was 2.1 nM and 3.5 nM; in assay [10] it was 0.6 nM.

B2: G6-23 Fab (Fab, V domains shown)
VH: B1 VH
VL: B1 VL with Q89K, S91G, T93A, T94N, P96W
Take B2: the Kd in assay [1] is under 0.2 nM; in [2], under 0.09 nM; in [3] it was under 0.2 nM; in assay [4], under 0.1 nM; in assay [11], ~0.2 nM and ~0.6 nM; in assay [12], ~0.2 nM and ~0.1 nM. This molecule also gave an IC50 in assay [9] of 0.04 nM.

B3: G6-8 Fab (Fab, V domains shown)
VH: B1 VH
VL: B1 VL with S91G, Y92A, T93G, T94S, P96L
As for B3, the Kd was found to be 0.45 nM in assay [1] and 0.12 nM in [2]. For the same molecule, the 50% inhibitory concentration (IC50) is 0.11 nM in assay [13]; 0.06 nM in assay [5]; 0.13 nM and 0.07 nM in [9]; 0.06 nM in [10].

B4: G6-31 Fab (Fab, V domains shown)
VH: B1 VH
VL: B1 VL with S91G, T93G, T94N, P96F
Take B4: the dissociation constant (Kd) in assay [1] is under 0.09 nM; in assay [2], under 0.06 nM; in assay [11], ~0.2 nM and ~0.4 nM; in [12], ~0.06 nM and ~0.08 nM. Further, the half-maximal inhibitory concentration (IC50) in [13] was 0.04 nM; in assay [9], 0.04 nM and 0.02 nM.

One may read the Kd as the free concentration of one partner at which half of the binding sites on the other are occupied at equilibrium, for simple one-to-one binding. Higher therefore signals a looser complex. As a reminder, the IC50 is the concentration needed to halve the response being measured. A lower IC50 goes with greater potency in that assay.

The values above are taken from patent publication US20130315918A1 (published 2013).
